Experimental data as given in patent publication US10774052B2, “Heteroaryl compounds and uses thereof” (Celgene CAR LLC, priority 2013, dated 2020).

Protein sequences, listed by entry. Tags and fused reporters are not part of them. Residues count along the entry.
UniProt P22455, 460-802: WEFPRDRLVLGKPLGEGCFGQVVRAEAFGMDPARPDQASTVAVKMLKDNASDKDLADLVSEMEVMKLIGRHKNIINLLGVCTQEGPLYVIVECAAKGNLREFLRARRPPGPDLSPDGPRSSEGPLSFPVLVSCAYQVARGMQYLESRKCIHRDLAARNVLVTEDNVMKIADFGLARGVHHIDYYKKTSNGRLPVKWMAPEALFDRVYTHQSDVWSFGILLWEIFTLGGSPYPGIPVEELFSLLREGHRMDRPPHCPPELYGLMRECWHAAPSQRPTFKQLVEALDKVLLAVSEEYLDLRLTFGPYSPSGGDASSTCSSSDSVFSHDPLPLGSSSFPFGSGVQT

Molecular target: FGFR4 intact protein (Homo sapiens (Human), UniProt P22455)
[1] = intact FGFR4 (Invitrogen), 10-fold excess, 60 minutes

centroid mass shift of FGFR4 [1] [Da] | percentage of modified protein (mass shift / molecular weight) [1] [%] | SMILES | MS FGFR4 (mass modification) (method a: FGFR4 from SignalChem, 10-fold excess of compound, 60 min)
– | – | C=CC(=O)NC1CCCCC1Nc1ncc2c(n1)N(C)C(=O)N(c1c(Cl)c(OC)cc(OC)c1Cl)C2 (racemic) [Compound I-19] | E (mass modification of ≥70%)
589 | 87 | C=CC(=O)Nc1ccccc1Nc1ncc2c(n1)N(Cc1cccc(NC(=O)CC)c1)C(=O)N(c1c(Cl)c(OC)cc(OC)c1Cl)C2 [Compound I-1] | –
